Numbering of substitutions follows the chain as printed. Numbers in names are those of the source.
B1: PAP-TCR-156-38: mutant of PAP-TCR-156, bCDR2-N3H; targets … (protein)
TCR alpha: QKEVEQNSGPLSVPEGAIASLNCTYSDRGSQSFFWYRQYSGKSPELIMFIYSNGDKEDGRFTAQLNKASQYVSLLIRDSQPSDSATYLCAVNNARLMFGDGTQLVVKPN
TCR beta: DSGVTQTPKHLITATGQRVTLRCSPRSGDLSVYWYQQSLDQGLQFLIQYYHGEERAKGNILERFSAQQFPDLHSELNLSSLELGDSALYFCASSVAGSPEAFFGQGTRLTVVED
modifications: left off: a dimerising Fc or GST
B2: PAP-TCR-156-32: mutant of PAP-TCR-156, aCDR1-S6N; targets … (protein)
TCR alpha: B1 TCR alpha with S32N
TCR beta: B1 TCR beta with H51N
modifications: left off: a dimerising Fc or GST
B3: PAP-TCR-156-35: mutant of PAP-TCR-156, bCDR1-S1H; targets … (protein)
TCR alpha: B1 TCR alpha
TCR beta: B1 TCR beta with S27H, H51N
modifications: left off: a dimerising Fc or GST
B4: PAP-TCR-156-31: mutant of PAP-TCR-156, aCDR1-S6H; targets … (protein)
TCR alpha: B1 TCR alpha with S32H
TCR beta: B1 TCR beta with H51N
modifications: left off: a dimerising Fc or GST
B5: PAP-TCR-156-37: mutant of PAP-TCR-156, bCDR2-Y1H; targets … (protein)
TCR alpha: B1 TCR alpha
TCR beta: B1 TCR beta with Y49H, H51N
modifications: left off: a dimerising Fc or GST
B6: PAP-TCR-156-39: mutant of PAP-TCR-156, bCDR3-E10H; targets … (protein)
TCR alpha: B1 TCR alpha
TCR beta: B1 TCR beta with H51N, E100H
modifications: left off: a dimerising Fc or GST
B7: PAP-TCR-156-30: mutant of PAP-TCR-156, aCDR1-S6E; targets … (protein)
TCR alpha: B1 TCR alpha with S32E
TCR beta: B1 TCR beta with H51N
modifications: left off: a dimerising Fc or GST
B8: PAP-TCR-156-29: mutant of PAP-TCR-156, aCDR1-S4E; targets … (protein)
TCR alpha: B1 TCR alpha with S30E
TCR beta: B1 TCR beta with H51N
modifications: left off: a dimerising Fc or GST
B9: PAP-TCR-156-34: mutant of PAP-TCR-156, aCDR2-D6N; targets … (protein)
TCR alpha: B1 TCR alpha with D55N
TCR beta: B1 TCR beta with H51N
modifications: left off: a dimerising Fc or GST
B10: PAP-TCR-156-36: mutant of PAP-TCR-156, bCDR1-SIN (Beta CDR1 NGDLS); targets … (protein)
TCR alpha: B1 TCR alpha
TCR beta: B1 TCR beta with S27N, H51N
modifications: left off: a dimerising Fc or GST
B11: PAP-TCR-156-33: mutant of PAP-TCR-156, aCDR2-N4H; targets … (protein)
TCR alpha: B1 TCR alpha with N53H
TCR beta: B1 TCR beta with H51N
modifications: left off: a dimerising Fc or GST

Amino acid sequences for entries named in this document (tags omitted). A change or cut given only in a name is not applied to a line headed by its entry.
UniProt P15309: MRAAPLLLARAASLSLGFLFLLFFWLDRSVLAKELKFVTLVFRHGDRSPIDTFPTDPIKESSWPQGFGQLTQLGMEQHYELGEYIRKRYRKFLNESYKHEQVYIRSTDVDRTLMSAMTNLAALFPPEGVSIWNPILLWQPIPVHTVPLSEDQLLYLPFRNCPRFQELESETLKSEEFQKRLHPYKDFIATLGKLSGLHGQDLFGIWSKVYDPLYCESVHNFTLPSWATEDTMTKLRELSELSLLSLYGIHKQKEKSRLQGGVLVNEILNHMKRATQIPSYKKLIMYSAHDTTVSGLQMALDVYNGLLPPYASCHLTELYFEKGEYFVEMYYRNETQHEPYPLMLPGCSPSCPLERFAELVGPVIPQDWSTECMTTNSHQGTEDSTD

Biological target: PAP peptide (Homo sapiens, UniProt P15309)
Experiment: PAP peptide titration assays of TCR156 variants (FIG. 7)
Assay type: cell-based

function in PAP peptide titration assays relative to unmutated TCR156 (wt) | Molecule
enhanced functions | B1
enhanced functions | B2
enhanced functions | B3
enhanced functions | B4
enhanced functions | B5
enhanced functions | B6
enhanced functions | B7
enhanced functions | B8
enhanced functions | B9
enhanced functions | B10
enhanced functions | B11

Reference: US20250161357A1, “HUMAN T CELL RECEPTOR PAIRS REACTIVE WITH HLA-A*02:01 RESTRICTED HUMAN PROSTATIC ACID PHOSPHATASE (PAP) EPITOPES” (The Regents of the University of California, priority 2022, published 2025)
